Measured values: PubChem BioAssay AID602340 (Broad Institute, 2012)
The list shows a part of the results, in another mix than the full data. Some salts and complexes are drawn in separate pieces, as the source files them; their charges need not balance. Activity calls are given as the source filed them.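 How the source made its calls: active means mean ATP rescue above about 67%, or every replicate alone reaching that limit (limit read from the data, passing the limit was not always enough); inconclusive means no clear call, values can overlap the other calls; inactive means mean under the limit and some replicate under it.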

assay: protection of differentiated C2C12 cells from simvastatin – single point, plate reader, primary screen (AID 602340); conditions: C2C12 myotubes + simvastatin, ATP luminescence, 48 h; at 7.49 µM; stronger effect = higher value; scaled: DMSO 0, geranylgeraniol control 100;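 further: myotubes were challenged with 10 µM simvastatin during compound exposure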

Row | Structure (SMILES) | rescue of ATP level
1 | COc1ccc(OP(C)(=O)Nc2ccc(Br)cc2)cc1 (stereo not given) | inactive: -1.14%
2 | CP(=O)(Oc1ccccc1)N1CCOC1=O (stereo not given) | inactive: 1.69%
3 | CCc1ccc(OP(C)(=O)Nc2cccnc2)cc1 (stereo not given) | inactive: 16.5%
4 | COc1ccccc1OP(C)(=O)Nc1c(C)n(C)n(-c2ccccc2)c1=O (stereo not given) | inactive: 9.87%
5 | O=C(OCCCN1CCCC1)C(O)(c1ccccc1)C1CCCCC1 (stereo not given) | inactive: -0.397%
6 | CP(=O)(Nc1ccc(Cl)cc1)Oc1ccc(F)cc1 (stereo not given) | inactive: 17%
7 | CC(C)(C)c1ccc(OP(C)(=O)O)cc1 | inactive: -25.1%
8 | COc1ccccc1OP(C)(=O)Nc1ccccc1Br (stereo not given) | inactive: -8.96%
9 | CP(=O)(OC12CC3CC(CC(C3)C1)C2)OC12CC3CC(CC(C3)C1)C2 | inactive: -12.4%
10 | O=C1C(O)=C([N+](=O)[O-])C(=O)C(O)=C1[N+](=O)[O-] | inactive: -4.27%
11 | COc1ccccc1OP(C)(=O)Nc1ccc(C)c(C)c1 (stereo not given) | inactive: -3.35%
12 | CP(=O)(Nc1ccc(Cl)cc1Cl)Oc1ccccc1 (stereo not given) | inactive: -2.5%
13 | COc1ccccc1OP(C)(=O)Nc1ccc(Br)cc1 (stereo not given) | inactive: 7.9%
14 | CN(C)CCOC(=O)C(O)(c1ccccc1)C1CCCC1 (stereo not given) | inactive: 7.2%
15 | COc1ccc(OP(C)(=O)Nc2ccccn2)cc1 (stereo not given) | inactive: -4.2%
16 | O=[N+]([O-])c1cc([N+](=O)[O-])c(Nc2ccccn2)c([N+](=O)[O-])c1 | inactive: -0.237%
17 | CCc1ccc(OP(C)(=O)O)cc1 | inactive: 1.21%
18 | CP(=O)(Nc1ccccn1)Oc1ccccc1 (stereo not given) | inactive: 0.835%
19 | COc1ccccc1OP(C)(=O)Nc1ccc(C)cc1C (stereo not given) | inactive: 1.75%
20 | O=[N+]([O-])c1cc([N+](=O)[O-])c(Nc2ccc(Cl)cc2)c([N+](=O)[O-])c1 | inactive: -10.2%

Row | Structure (SMILES) | rescue of ATP level
21 | CP(=O)(Nc1ccccc1F)Oc1ccccc1 (stereo not given) | inactive: 18.6%
22 | COc1ccc2c(c1O)-c1c(O)c(OC)cc3c1[C@H](C2)[N+](C)(C)CC3.O=[N+]([O-])c1cc([N+](=O)[O-])c([O-])c([N+](=O)[O-])c1[O-] | inactive: -0.611%
23 | Cc1c([N+](=O)[O-])cc([N+](=O)[O-])c(Br)c1[N+](=O)[O-] | inactive: -1.62%
24 | O=[N+]([O-])c1cc([N+](=O)[O-])c(OC2CCCCC2O)c([N+](=O)[O-])c1 (stereo not given) | inactive: -0.837%
25 | CP(=O)(Nc1ccccc1)Oc1ccc(F)cc1 (stereo not given) | inactive: 21.3%
26 | COc1ccc(OP(C)(=O)Nc2cccc(Br)c2)cc1 (stereo not given) | inactive: 4.49%
27 | COc1ccc(NP(C)(=O)Oc2ccccc2OC)cc1 (stereo not given) | inactive: 2.39%
28 | Cc1cc(-c2cccc3ccccc23)c(C)cn1.O=[N+]([O-])c1cc([N+](=O)[O-])c(O)c([N+](=O)[O-])c1 | inactive: -103%
29 | O=[N+]([O-])c1ccc(OP2(=O)COCCO2)cc1 (stereo not given) | inactive: -2.21%
30 | Cc1c(C(c2ccc3c(c2)OCO3)c2c(C)n(C)n(-c3ccccc3)c2=O)c(=O)n(-c2ccccc2)n1C.O=[N+]([O-])c1cc([N+](=O)[O-])c(O)c([N+](=O)[O-])c1 | inactive: -7.01%
31 | CP(=O)(Nc1ccc(SC(F)(F)F)cc1)Oc1ccc(F)cc1 (stereo not given) | inactive: -10.7%
32 | CCOP(C)(=S)SCC(=O)NC(C)(CC)C(=O)O (stereo not given) | inactive: 11.4%
33 | CP(=O)(Nc1ccc2c(c1)OCCO2)Oc1ccccc1 (stereo not given) | inactive: 25.1%
34 | Cc1ccccc1NP(C)(=O)Nc1ccccc1C | inactive: 10.5%
35 | O=[N+]([O-])c1cc([N+](=O)[O-])c(-n2nnc3ccccc32)c([N+](=O)[O-])c1 | inactive: 5.03%
36 | CN(Cc1cccnc1)C(=O)COc1ccc(Cl)c(Cl)c1.O=[N+]([O-])c1cc([N+](=O)[O-])c(O)c([N+](=O)[O-])c1 | inactive: -3.35%
37 | Cc1nc2ccc3ccccc3c2s1.O=[N+]([O-])c1cc([N+](=O)[O-])c(O)c([N+](=O)[O-])c1 | inactive: 30.2%
38 | O=[N+]([O-])c1cc([N+](=O)[O-])c(Nc2nnnn2CCO)c([N+](=O)[O-])c1 | inactive: 3.15%
39 | CC1=C2N=C(C=C3N=C(C(C)=C4[N-][C@@](C)([C@@H]5N=C1[C@](C)(CCC(=O)NC[C@@H](C)OP(=O)([O-])O[C@H]1[C@@H](O)[C@@H](n6cnc7cc(C)c(C)cc76)O[C@@H]1CO)[C@H]5CC(N)=O)[C@@](C)(CC(N)=O)[C@@H]4CCC(N)=O)[C@@](C)(CC(N)=O)[C@@H]3CCC(N)=O)C(C)(C)[C@@H]2CCC(N)=O.[C-]#N.[Co+3] | inactive: 1.77%
40 | CN1CCCCC1COC(=O)C1(O)c2ccccc2CCc2ccccc21 (stereo not given) | inactive: -7.05%

Row | Structure (SMILES) | rescue of ATP level
41 | COc1ccccc1OP(C)(=O)Nc1c(C)cccc1C (stereo not given) | inactive: 2.48%
42 | CCCOc1ccc(NP(C)(=O)Oc2ccc(Cl)cc2)cc1 (stereo not given) | inactive: 1.64%
43 | O=C(O)c1cccc(Nc2c([N+](=O)[O-])cc([N+](=O)[O-])cc2[N+](=O)[O-])c1 | inactive: -10.3%
44 | CC1=NCCc2c1[nH]c1ccccc21.O=[N+]([O-])c1cc([N+](=O)[O-])c(O)c([N+](=O)[O-])c1 | inactive: -7.14%
45 | COc1ccccc1OP(C)(=O)Nc1cccc(Br)c1 (stereo not given) | inactive: -2.79%
46 | Cc1cc(C)cc(OP(C)(=O)Nc2ccc(C)cc2C)c1 (stereo not given) | inactive: -2.06%
47 | Cc1cc(C)cc(OP(C)(=O)Nc2ccccn2)c1 (stereo not given) | inactive: 4.58%
48 | Cc1ccc(C)c(NP(C)(=O)Oc2ccccc2)c1 (stereo not given) | inactive: 7.99%
49 | O=[N+]([O-])c1cc([N+](=O)[O-])c(Nc2cccnc2)c([N+](=O)[O-])c1 | inactive: 18.9%
50 | CCOC(=O)c1ccc(NP(C)(=O)Oc2ccccc2)cc1 (stereo not given) | inactive: 14.2%
51 | Cc1ccc(NP(C)(=O)Oc2ccccc2)c(C)c1 (stereo not given) | inactive: 12.8%
52 | COc1ccccc1OP(C)(=O)Nc1cc(Cl)ccc1C (stereo not given) | inactive: 2.8%
53 | COc1ccc(OP(C)(=O)Nc2cccc(F)c2)cc1 (stereo not given) | inactive: 3.65%
54 | Cc1cc(C)cc(OP(C)(N)=O)c1 (stereo not given) | inactive: -0.831%
55 | CP(=S)(Nn1cnnc1)Oc1ccccc1 (stereo not given) | inactive: -5.36%
56 | Cc1ccc(Nc2c([N+](=O)[O-])cc([N+](=O)[O-])cc2[N+](=O)[O-])cc1 | inactive: 4.65%
57 | CP(=O)(Oc1ccccc1)OC(c1ccccc1)C(F)(F)F (stereo not given) | inactive: 9.1%
58 | CP(=O)(NC(=O)Nc1ccccc1)Oc1ccccc1 (stereo not given) | inactive: 5.65%
59 | CCOP(C)(=S)SCC(=O)NC(C)C(=O)O (stereo not given) | inactive: 4.35%
60 | CP(=O)(Nc1ccccn1)Oc1ccc(Cl)cc1 (stereo not given) | inactive: 16.1%
